Tests used:
[1] = system: hepatocytes (liver); settings: rat, in vivo, po; cited from earlier work
[2] = system: hepatocytes of formalin-fixed liver tissues; settings: rat, in vivo, po

In the case of `O=NN1CCCC1` [NPYR, N-Nitrosopyrrolidine], the “RDLMN test result (liver micronucleus induction), collagenase digestion method” value [1] is listed as “positive” and the “RDLMN test result (liver micronucleus induction), formalin-fixed method” value [2] is listed as “positive”.
